From patent publication US4447608A (dated 1984)

Test system: L1210 tumour
Assay: Treatment of L1210 ascitic tumour-bearing mice, survival
Conditions: single doses up to 160 mg/Kg i.p.

`C#CCN(Cc1ccc2nc(N)nc(O)c2c1)c1ccc(C(=O)N[C@@H](CCC(=O)O)C(=O)O)cc1` [CB 3717, N-(4-(N-((2-amino-4-hydroxy-6-quinazolinyl)methyl)prop-2-ynylamino)benzoyl)-L-glutamic acid] was tested, and the “therapeutic effect of single doses” value was “very little therapeutic effect”.
